Measured values from article PMC13064811, “The Role of Disulfide Bonds in the GluN1 Subunit in the Early Trafficking and Functional Properties of GluN1/GluN2 and GluN1/GluN3 NMDA Receptors” (The Journal of Neuroscience, 2026).

Amino acid sequences for entries named in this document (tags omitted). A change or cut given only in a name is not applied to a line headed by its entry. Residues count along the entry.
UniProt Q00959, 23-1464: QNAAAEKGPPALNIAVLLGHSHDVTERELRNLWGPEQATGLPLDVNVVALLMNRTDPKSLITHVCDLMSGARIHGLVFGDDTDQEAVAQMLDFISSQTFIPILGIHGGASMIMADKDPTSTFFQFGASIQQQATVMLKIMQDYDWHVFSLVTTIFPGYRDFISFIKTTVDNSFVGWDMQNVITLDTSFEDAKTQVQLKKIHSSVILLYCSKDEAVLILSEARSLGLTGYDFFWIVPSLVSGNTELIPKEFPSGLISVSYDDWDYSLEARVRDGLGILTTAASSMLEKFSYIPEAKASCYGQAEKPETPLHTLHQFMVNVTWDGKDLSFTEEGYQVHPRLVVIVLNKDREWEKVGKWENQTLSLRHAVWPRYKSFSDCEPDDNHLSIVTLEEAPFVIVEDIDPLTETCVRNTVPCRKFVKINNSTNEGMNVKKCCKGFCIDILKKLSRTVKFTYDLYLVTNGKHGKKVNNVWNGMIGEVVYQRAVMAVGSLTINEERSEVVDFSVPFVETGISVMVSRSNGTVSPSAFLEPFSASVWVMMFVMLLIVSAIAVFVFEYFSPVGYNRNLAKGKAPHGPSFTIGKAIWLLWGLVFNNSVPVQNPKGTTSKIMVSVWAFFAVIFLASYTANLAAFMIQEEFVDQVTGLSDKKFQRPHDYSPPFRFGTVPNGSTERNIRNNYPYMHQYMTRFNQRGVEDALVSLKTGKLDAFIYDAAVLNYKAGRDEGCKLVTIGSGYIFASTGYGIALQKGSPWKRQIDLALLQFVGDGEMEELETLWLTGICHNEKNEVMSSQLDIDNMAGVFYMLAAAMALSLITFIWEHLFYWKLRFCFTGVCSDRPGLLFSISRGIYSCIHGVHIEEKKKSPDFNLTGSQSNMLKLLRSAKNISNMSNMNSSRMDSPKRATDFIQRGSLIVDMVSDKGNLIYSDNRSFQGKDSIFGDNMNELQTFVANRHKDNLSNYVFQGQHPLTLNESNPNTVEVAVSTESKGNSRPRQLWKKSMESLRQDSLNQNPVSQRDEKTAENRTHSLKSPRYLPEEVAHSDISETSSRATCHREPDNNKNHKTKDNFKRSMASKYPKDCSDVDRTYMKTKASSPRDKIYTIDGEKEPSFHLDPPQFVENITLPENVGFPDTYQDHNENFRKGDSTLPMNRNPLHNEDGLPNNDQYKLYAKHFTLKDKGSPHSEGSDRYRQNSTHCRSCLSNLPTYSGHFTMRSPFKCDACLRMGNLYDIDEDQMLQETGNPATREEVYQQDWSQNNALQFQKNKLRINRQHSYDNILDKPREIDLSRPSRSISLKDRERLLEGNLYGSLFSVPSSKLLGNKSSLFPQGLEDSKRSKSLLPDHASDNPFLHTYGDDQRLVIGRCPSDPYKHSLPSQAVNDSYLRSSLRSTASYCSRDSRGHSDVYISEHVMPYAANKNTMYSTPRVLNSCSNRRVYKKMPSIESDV
UniProt Q00960, 27-1482: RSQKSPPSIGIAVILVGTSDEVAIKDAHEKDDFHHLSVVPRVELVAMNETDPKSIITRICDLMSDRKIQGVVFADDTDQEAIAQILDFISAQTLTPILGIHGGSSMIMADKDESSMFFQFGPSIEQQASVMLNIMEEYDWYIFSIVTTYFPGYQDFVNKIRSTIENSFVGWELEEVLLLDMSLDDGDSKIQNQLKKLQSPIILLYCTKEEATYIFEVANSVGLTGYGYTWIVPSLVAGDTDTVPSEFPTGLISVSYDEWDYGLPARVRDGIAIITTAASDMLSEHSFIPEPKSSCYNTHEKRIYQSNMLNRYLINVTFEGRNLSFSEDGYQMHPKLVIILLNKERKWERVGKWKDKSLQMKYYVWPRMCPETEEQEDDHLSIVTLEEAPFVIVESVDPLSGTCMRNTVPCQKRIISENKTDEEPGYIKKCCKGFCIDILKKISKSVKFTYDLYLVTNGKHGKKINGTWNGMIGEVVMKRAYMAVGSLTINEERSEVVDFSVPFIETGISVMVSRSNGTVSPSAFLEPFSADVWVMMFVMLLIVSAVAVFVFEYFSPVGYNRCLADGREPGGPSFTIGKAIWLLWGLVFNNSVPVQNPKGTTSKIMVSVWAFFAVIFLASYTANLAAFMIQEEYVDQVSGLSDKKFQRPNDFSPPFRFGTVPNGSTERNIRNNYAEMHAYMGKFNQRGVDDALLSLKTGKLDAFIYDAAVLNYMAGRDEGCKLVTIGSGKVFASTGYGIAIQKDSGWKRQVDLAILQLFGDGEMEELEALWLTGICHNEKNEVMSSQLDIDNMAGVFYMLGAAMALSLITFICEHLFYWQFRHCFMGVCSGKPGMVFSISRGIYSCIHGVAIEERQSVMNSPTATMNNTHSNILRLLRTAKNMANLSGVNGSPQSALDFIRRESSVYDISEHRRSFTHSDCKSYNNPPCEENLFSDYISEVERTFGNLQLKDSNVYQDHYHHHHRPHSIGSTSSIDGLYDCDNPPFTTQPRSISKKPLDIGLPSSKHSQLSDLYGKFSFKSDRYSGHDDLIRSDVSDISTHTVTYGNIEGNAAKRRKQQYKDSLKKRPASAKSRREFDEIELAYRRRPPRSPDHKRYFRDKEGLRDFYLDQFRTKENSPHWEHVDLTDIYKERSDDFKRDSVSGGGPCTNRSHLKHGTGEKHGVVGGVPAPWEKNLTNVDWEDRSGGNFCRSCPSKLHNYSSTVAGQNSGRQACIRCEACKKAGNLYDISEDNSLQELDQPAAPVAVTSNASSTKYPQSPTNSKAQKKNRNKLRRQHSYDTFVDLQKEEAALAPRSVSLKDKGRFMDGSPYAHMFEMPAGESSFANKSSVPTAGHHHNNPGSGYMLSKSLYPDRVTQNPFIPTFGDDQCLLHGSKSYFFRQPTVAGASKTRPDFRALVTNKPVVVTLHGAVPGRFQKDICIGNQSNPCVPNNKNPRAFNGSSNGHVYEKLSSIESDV

Key:
YFP-GluN1-1a/GluN2A = YFP-GluN1-1a/GluN2A (Rattus norvegicus, UniProt P35439+Q00959)
[1] = molecular target: YFP-GluN1-1a-C79S-C308S/GluN2A (Rattus norvegicus, UniProt P35439+Q00959, C308S/C79S)
[2] = molecular target: YFP-GluN1-1a-C420S-C454S/GluN2A (Rattus norvegicus, UniProt P35439+Q00959, C420S/C454S)
[3] = molecular target: YFP-GluN1-4a-C436S-C455S/GluN2A (Rattus norvegicus, UniProt P35439+Q00959, C436S/C455S)
[4] = molecular target: YFP-GluN1-1a-C744S-C798S/GluN2A (Rattus norvegicus, UniProt P35439+Q00959, C744S/C798S)
YFP-GluN1-1a/GluN2B = YFP-GluN1-1a/GluN2B (Rattus norvegicus, UniProt P35439+Q00960)
[5] = molecular target: YFP-GluN1-1a-C79S-C308S/GluN2B (Rattus norvegicus, UniProt P35439+Q00960, C308S/C79S)
[6] = molecular target: YFP-GluN1-1a-C420S-C454S/GluN2B (Rattus norvegicus, UniProt P35439+Q00960, C420S/C454S)
[7] = molecular target: YFP-GluN1-4a-C436S-C455S/GluN2B (Rattus norvegicus, UniProt P35439+Q00960, C436S/C455S)
[8] = molecular target: YFP-GluN1-1a-C744S-C798S/GluN2B (Rattus norvegicus, UniProt P35439+Q00960, C744S/C798S)
GluN1-4a/GluN2A = GluN1-4a/GluN2A (Rattus norvegicus, UniProt P35439+Q00959)
[9] = molecular target: GluN1-4a-C79S-C308S/GluN2A (Rattus norvegicus, UniProt P35439+Q00959, C308S/C79S)
[10] = molecular target: GluN1-4a-C420S-C454S/GluN2A (Rattus norvegicus, UniProt P35439+Q00959, C420S/C454S)
[11] = molecular target: GluN1-4a-C436S-C455S/GluN2A (Rattus norvegicus, UniProt P35439+Q00959, C436S/C455S)
[12] = molecular target: GluN1-4a-C744S-C798S/GluN2A (Rattus norvegicus, UniProt P35439+Q00959, C744S/C798S)
GluN1-4a/GluN2B = GluN1-4a/GluN2B (Rattus norvegicus, UniProt P35439+Q00960)
[13] = molecular target: GluN1-4a-C79S-C308S/GluN2B (Rattus norvegicus, UniProt P35439+Q00960, C308S/C79S)
[14] = molecular target: GluN1-4a-C420S-C454S/GluN2B (Rattus norvegicus, UniProt P35439+Q00960, C420S/C454S)
[15] = molecular target: GluN1-4a-C436S-C455S/GluN2B (Rattus norvegicus, UniProt P35439+Q00960, C436S/C455S)
[16] = molecular target: GluN1-4a-C744S-C798S/GluN2B (Rattus norvegicus, UniProt P35439+Q00960, C744S/C798S)

NCC(=O)O [glycine]
h (Hill coefficient), glycine (YFP-GluN1-1a/GluN2A): 1.31 ± 0.08
h (Hill coefficient), glycine [1]: 1.33 ± 0.06
h (Hill coefficient), glycine [2]: 1.57 ± 0.10
h (Hill coefficient), glycine [3]: 1.29 ± 0.04
h (Hill coefficient), glycine [4]: 1.24 ± 0.07
h (Hill coefficient), glycine (YFP-GluN1-1a/GluN2B): 1.05 ± 0.03
h (Hill coefficient), glycine [5]: 1.21 ± 0.09
h (Hill coefficient), glycine [6]: 1.13 ± 0.08
h (Hill coefficient), glycine [7]: 1.12 ± 0.04
h (Hill coefficient), glycine [8]: 0.98 ± 0.06
h (Hill coefficient), glycine (GluN1-4a/GluN2A): 1.37 ± 0.03
h (Hill coefficient), glycine [9]: 1.58 ± 0.10
h (Hill coefficient), glycine [10]: 1.23 ± 0.06
h (Hill coefficient), glycine [11]: 1.30 ± 0.05
h (Hill coefficient), glycine [12]: 1.10 ± 0.09
h (Hill coefficient), glycine (GluN1-4a/GluN2B): 0.95 ± 0.05
h (Hill coefficient), glycine [13]: 1.32 ± 0.04
h (Hill coefficient), glycine [14]: 1.18 ± 0.09
h (Hill coefficient), glycine [15]: 1.20 ± 0.07
h (Hill coefficient), glycine [16]: 0.86 ± 0.02
